{"sequences": {"note": "Amino acid sequences for entries named in this document (tags omitted).", "UniProt P35372, whole entry": "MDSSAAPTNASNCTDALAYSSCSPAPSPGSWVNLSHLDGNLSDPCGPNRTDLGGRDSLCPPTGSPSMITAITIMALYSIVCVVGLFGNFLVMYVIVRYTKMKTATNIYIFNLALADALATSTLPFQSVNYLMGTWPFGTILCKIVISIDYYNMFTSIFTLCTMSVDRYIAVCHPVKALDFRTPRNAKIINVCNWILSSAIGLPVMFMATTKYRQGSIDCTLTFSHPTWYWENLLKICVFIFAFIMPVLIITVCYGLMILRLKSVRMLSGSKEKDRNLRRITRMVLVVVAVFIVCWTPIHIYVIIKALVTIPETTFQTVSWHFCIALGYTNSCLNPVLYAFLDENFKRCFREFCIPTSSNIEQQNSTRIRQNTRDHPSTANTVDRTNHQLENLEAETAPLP"}, "source": "patent US10130615B2", "about": "“Benzomorphan analogs and the use thereof” (priority 2014, dated 2018)", "key": {"μ-opioid receptor [1]": {"biological_target": "T1, μ-opioid receptor (Homo sapiens, UniProt P35372)", "experiment": "μ-opioid receptor [35S]GTPγS functional assay, HEK-293 or CHO cells", "type": "biochemical"}, "μ-opioid receptor [2]": {"biological_target": "T1, μ-opioid receptor", "experiment": "μ-opioid receptor β-Arr2 activity response, U2OS cells", "type": "cell-based"}}, "data": [{"smiles": "C[C@H]1[C@H]2Cc3ccc(O)cc3[C@]1(CCN1CCC(N3C(=O)Cc4ccccc43)CC1)CCN2C", "values": [{"measurement": "EC50", "setting": "μ-opioid receptor [1]; read-out: GTPγS μ EC50", "result": 12.1, "unit": "nM"}, {"measurement": "GTPγS μ Emax", "setting": "μ-opioid receptor [1]; relative to DAMGO", "result": "108.7 ± 2.30", "unit": "%"}, {"measurement": "β-Arr2 μ Emax", "setting": "μ-opioid receptor [2]", "result": "95.0 ± 3.79", "unit": "%"}, {"measurement": "EC50", "setting": "μ-opioid receptor [2]; read-out: β-Arr2 μ EC50", "result": 3.85, "unit": "nM"}]}]}
